From paper PMC6195125 (European journal of medicinal chemistry, 2018)
Read-outs that look alike come from different tables or passages of the source.

Key:
[1] = test system: normal human neonatal foreskin fibroblasts (NFFs); assay: Cytotoxicity against neonatal foreskin fibroblasts; assay type: cell-based; details: Fibroblast, read-out: NFF IC50
[2] = test system: normal human neonatal foreskin fibroblasts (NFFs); details: read-out: NFF IC50; data previously reported; cited from earlier work
P. falciparum 3D7 = details: read-out: P.falciparum IC50 Pf3D7; asexual blood stage, drug sensitive 3D7 line; mean (±SD), three independent assays
HepG2-A16-CD81EGFP cells = assay: HepG2 cytotoxicity bioluminescence assay; assay type: cell-based; details: Homo sapiens

Row | Compound | IC50 [1] | other results
1 | Cc1ccc(C(=O)N(CC(=O)NC2CCCCC2)Cc2ccc(C(=O)NO)cc2)cc1C [Compound 1q, N-(2-(Cyclohexylamino)-2-oxoethyl)-N-(4-(hydroxycarbamoyl)benzyl)-3,4-dimethyl-benzamide] | > 10 µM | 
2 | CCCCNC(=O)CN(Cc1ccc(C(=O)NO)cc1)C(=O)c1ccc(N(C)C)cc1 [Compound 1v, N-(2-(Butylamino)-2-oxoethyl)-4-(dimethylamino)-N-(4-(hydroxycarbamoyl)benzyl)-benzamide] | > 2 µM | 
3 | Cc1cccc(C(=O)N(CC(=O)NC2CCCCC2)Cc2ccc(C(=O)NO)cc2)c1 [Compound 1s, N-(2-(Cyclohexylamino)-2-oxoethyl)-N-(4-(hydroxycarbamoyl)benzyl)-3-methylbenzamide] | > 10 µM | 
4 | Cc1ccc(C(=O)N(CC(=O)NC(C)(C)C)Cc2ccc(C(=O)NO)cc2)cc1C [Compound 1a] | > 10 µM | 
5 | CN(C)c1cccc(C(=O)N(CC(=O)NC(C)(C)C)Cc2ccc(C(=O)NO)cc2)c1 [Compound 1o, N-(2-(tert-Butylamino)-2-oxoethyl)-3-(dimethylamino)-N-(4-(hydroxycarbamoyl)-benzyl)benzamide] | > 10 µM | 
6 | Cc1ccc(C(=O)N(CC(=O)NC2CCCCC2)Cc2ccc(C(=O)NO)cc2)cc1 [Compound 1t, N-(2-(Cyclohexylamino)-2-oxoethyl)-N-(4-(hydroxycarbamoyl)benzyl)-4-methylbenzamide] | > 3 µM | 
7 | CN(C)c1cccc(C(=O)N(CC(=O)NC2CCCCC2)Cc2ccc(C(=O)NO)cc2)c1 [Compound 1p, N-(2-(Cyclohexylamino)-2-oxoethyl)-3-(dimethylamino)-N-(4-(hydroxycarbamoyl)-benzyl)benzamide] | > 10 µM | 
8 | O=C(CCCCCCC(=O)Nc1ccccc1)NO [SAHA, suberoylanilide hydroxamic acid] |  | IC50 [2]: 4.9 µM
9 | CCCCNC(=O)CN(Cc1ccc(C(=O)NO)cc1)C(=O)c1cccc(N(C)C)c1 [Compound 1w, N-(2-(Butylamino)-2-oxoethyl)-3-(dimethylamino)-N-(4-(hydroxycarbamoyl)benzyl)-benzamide] | > 10 µM | 
10 | CC(C)(C)NC(=O)CN(Cc1ccc(C(=O)NO)cc1)C(=O)c1cccc2ccccc12 [Compound 1c] | > 10 µM | 
11 | Methyl 4-((3,5-dimethyl-N-(2-oxo-2-(p-tolylamino)ethyl)benzamido)methyl)benzoate [Compound 1m] |  | IC50 (P. falciparum 3D7): 0.033 µM
12 | O=C(CN(Cc1ccc(C(=O)NO)cc1)C(=O)c1cccc2ccccc12)NC1CCCCC1 [Compound 1g] | > 10 µM | IC50 (HepG2-A16-CD81EGFP cells; HepG2, 48 h, read-out: HepG2 IC50): > 50 µM; IC50 (HepG2-A16-CD81EGFP cells; HepG2, read-out: HepG2 IC50): > 50 µM
13 | Cc1cc(C)cc(C(=O)N(CC(=O)NC(C)(C)C)Cc2ccc(C(=O)NO)cc2)c1 [Compound 1e] | > 10 µM | 
14 | O=C(CN(Cc1ccc(C(=O)NO)cc1)C(=O)c1ccccc1)NC1CCCCC1 [Compound 1f] | > 10 µM | 
15 | CC(C)(C)NC(=O)CN(Cc1ccc(C(=O)NO)cc1)C(=O)c1ccccc1 [Compound 1b] | > 10 µM | 
16 | Cc1cc(C)cc(C(=O)N(CC(=O)NC2CCCCC2)Cc2ccc(C(=O)NO)cc2)c1 [Compound 1i] | > 10 µM | 
17 | CCCCNC(=O)CN(Cc1ccc(C(=O)NO)cc1)C(=O)c1cc(C)cc(C)c1 [Compound 1x, N-(2-(Butylamino)-2-oxoethyl)-N-(4-(hydroxycarbamoyl)benzyl)-3,5-dimethylbenzamide] | > 10 µM | 
18 | Cc1ccccc1C(=O)N(CC(=O)NC1CCCCC1)Cc1ccc(C(=O)NO)cc1 [Compound 1r, N-(2-(Cyclohexylamino)-2-oxoethyl)-N-(4-(hydroxycarbamoyl)benzyl)-2-methylbenzamide] | > 10 µM | 
19 | Cc1ccc(NC(=O)CN(Cc2ccc(C(=O)NO)cc2)C(=O)c2ccccc2)cc1 [Compound 1j] | > 10 µM | 
20 | CC(C)c1ccc(C(=O)N(CC(=O)NC2CCCCC2)Cc2ccc(C(=O)NO)cc2)cc1 [Compound 1u, N-(2-(Cyclohexylamino)-2-oxoethyl)-N-(4-(hydroxycarbamoyl)benzyl)-4-isopropylbenzamide] | > 4 µM | 
21 | Cc1ccc(NC(=O)CN(Cc2ccc(C(=O)NO)cc2)C(=O)c2cccc(N(C)C)c2)cc1 [Compound 1n, 3-(Dimethylamino)-N-(4-(hydroxycarbamoyl)benzyl)-N-(2-oxo-2-(p-tolylamino)-ethyl)benzamide] | > 10 µM | 
